The target of this assay is G protein-coupled receptor kinase 5 (Homo sapiens, UniProt P34947). The assay can be described thus: Inhibition of GRK5 (unknown origin) preincubated for 10 mins followed by peptide substrate and ATP addition measured after 1 hr by TR-FRET assay.

Chains of the proteins cited; added tags and fusions are not shown.
UniProt P34947, whole entry: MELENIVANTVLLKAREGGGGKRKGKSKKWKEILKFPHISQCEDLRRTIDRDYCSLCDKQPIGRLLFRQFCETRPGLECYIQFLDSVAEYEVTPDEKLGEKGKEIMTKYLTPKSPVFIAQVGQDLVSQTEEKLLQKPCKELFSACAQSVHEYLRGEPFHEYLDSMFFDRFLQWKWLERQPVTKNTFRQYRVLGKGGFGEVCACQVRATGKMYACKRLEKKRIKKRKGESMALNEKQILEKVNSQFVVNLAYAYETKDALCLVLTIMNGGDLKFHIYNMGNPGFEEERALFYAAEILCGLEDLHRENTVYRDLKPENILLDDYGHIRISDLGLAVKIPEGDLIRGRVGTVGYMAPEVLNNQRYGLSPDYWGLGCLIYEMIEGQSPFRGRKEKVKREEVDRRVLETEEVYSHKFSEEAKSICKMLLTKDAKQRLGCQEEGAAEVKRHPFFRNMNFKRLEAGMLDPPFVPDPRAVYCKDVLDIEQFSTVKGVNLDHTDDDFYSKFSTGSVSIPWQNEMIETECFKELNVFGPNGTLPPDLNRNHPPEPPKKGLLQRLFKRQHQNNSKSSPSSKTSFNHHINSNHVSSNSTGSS

pIC50: −log10 of the molar value.

As to `COc1ccccc1C(C)NC(=O)c1cc(C2NC(=O)NC(C)=C2C(=O)Nc2ccc3[nH]ncc3c2)ccc1F` (stereo unspecified), the negative logarithm of the IC50 (pIC50) is 5.55.
